The values below are quoted from earlier work in PMC7395068, “The evolution of strategies to minimise the risk of human drug-induced liver injury (DILI) in drug discovery and development” (Archives of Toxicology, 2020).

The conditions of the data set: binary in vivo human DILI call; ref Chen 2016.

B1: ibritumomab tiuxetan (conjugate, chains of the INN, looked up)
heavy: QAYLQQSGAELVRPGASVKMSCKASGYTFTSYNMHWVKQTPRQGLEWIGAIYPGNGDTSYNQKFKGKATLTVDKSSSTAYMQLSSLTSEDSAVYFCARVVYYSNSYWYFDVWGTGTTVTVSAPSVYPLAPVCGDTTGSSVTLGCLVKGYFPEPVTLTWNSGSLSSGVHTFPAVLQSDLYTLSSSVTVTSSTWPSQSITCNVAHPASSTKVDKKIEPRGPTIKPCPPCKCPAPNLLGGPSVFIFPPKIKDVLMISLSPIVTCVVVDVSEDDPDVQISWFVNNVEVHTAQTQTHREDYNSTLRVVSALPIQHQDWMSGKEFKCKVNNKDLPAPIERTISKPKGSVRAPQVYVLPPPEEEMTKKQVTLTCMVTDFMPEDIYVEWTNNGKTELNYKNTEPVLDSDGSYFMYSKLRVEKKNWVERNSYSCSVVHEGLHNHHTTKSFSR
light: QIVLSQSPAILSASPGEKVTMTCRASSSVSYMHWYQQKPGSSPKPWIYAPSNLASGVPARFSGSGSGTSYSLTISRVEAEDAATYYCQQWSFNPPTFGAGTKLELKRADAAPTVFIFPPSDEQLKSGTASVVCLLNNFYPREAKVQWKVDNALQSGNSQESVTEQDSKDSTYSLSSTLTLSKADYEKHKVYACEVTHQGLSSPVTKSFN
modifications: tiuxetan chelator
As to B1, the “DILI +VE (5-8), DILI -VE (-4)” value is “-VE”.
